Laboratory results: patent publication US20260382643A1, “MITOCHONDRIA-TARGETED N-ACETYLCYSTEINE AND ANALOGS” (published 2026)

Tests used:
[1] = system: melanoma cancer (UACC-62) cells; experiment: Cell proliferation (IncuCyte), melanoma; details: for sensitivity of melanoma cells: compared with other cancer cells
[2] = system: human pancreatic cancer (MiaPaCa-2) cells; experiment: Cell death (SYTOX Green assay)
[3] = system: MiaPaCa-2 cells, basal mitochondrial respiration (OCR); experiment: Intact cell mitochondrial oxygen consumption (Seahorse XF-96)
mitochondrial complex I = mitochondrial complex I (UniProt O00217+O75251+O75306+O75489+P03886+P03891+P03897+P03901+P03905+P03915+P03923+P19404+P28331+P49821); experiment: Mitochondrial complex I-dependent oxygen consumption in permeabilized cells (Seahorse XF-96)
[4] = system: monocarboxylate transporter 4 (MCT-4); details: cited from earlier work
[5] = system: mitochondrial respiratory complex III; details: several cancer cells including glioblastoma; cited from earlier work
lung cancer = details: mice; cited from earlier work
melanoma = details: cited from earlier work
[6] = cited from earlier work
tumor microenvironment = details: cited from earlier work
[7] = system: human pancreatic cancer (MiaPaCa-2) cells; experiment: Cell proliferation (IncuCyte Live-Cell Analysis), MiaPaCa-2
[8] = system: human pancreatic cancer (MiaPaCa-2) cells; experiment: Intracellular ATP level (luciferase-based assay); details: at concentrations inhibiting proliferation (printed 10-20 M), 24 h
[9] = system: human pancreatic cancer (MiaPaCa-2) cells; experiment: Combination effect on cell proliferation (combination index-fraction affected); details: Mito10-NAC + NAC
MCT-1 transporter = details: cited from earlier work
[10] = system: B-cell lymphoma xenograft; details: with another OXPHOS inhibitor; cited from earlier work
[11] = relatively higher concentrations used to inhibit cancer cells; cited from earlier work
[12] = system: paracetamol toxicity and oxidative stress-induced diseases; details: cited from earlier work
glioma = details: neural stem cell-based antiglioma oncolytic virotherapy; cited from earlier work
[13] = vs NAC; cited from earlier work
[14] = tumor cell and mice xenograft studies
[15] = read-out: IC50, cell proliferation, at time when control cells reached ~90% confluence, cell line from FIGS. 4A-4B

In the case of `CC(=O)N[C@@H](CS)C(=O)O`, the “shape of dose response in melanoma cells” value ([1]; FIGS. 8A-8B) is reported as “dose-dependent biphasic effect”, the “sensitivity of melanoma cells” value [1] is reported as “more resistant” and the cell death ([2]; 24 h treatment) is reported as “considerable cell death”. For the same compound, the cell death ([2]; NAC >50 mM) was “significant cell death”, the cell toxicity ([2]; at concentrations of 100 mM) was “direct cell toxicity” and the IC50 ([3]; read-out: IC50, basal OCR, 24 h treatment) was over 100000 µM. For the same compound, the “inhibition of complex I-induced oxygen consumption” value (mitochondrial complex I; up to 100 mM, direct injection, permeabilized cells) was “about 30%”, the MCT-4 stromal expression ([4]; biomarker of breast cancer) was “decreased MCT-4 stromal expression” and the MCT-4 expression ([4]; cancer cell lines) was “inhibit monocarboxylate transporter 4 (MCT-4) expression”. The “effect on mitochondria and respiratory complex III” value [5] was “transient mitochondrial oxidation and inhibition of the mitochondrial respiratory complex III”, the “effect on lung cancer metastasis” value (lung cancer) was “enhanced metastasis of lung cancer in mice” and the “efficacy of adoptive T cell immunotherapy” value (melanoma; melanoma) was “improve the efficacy of adoptive T cell immunotherapy to treat melanoma”. The “effectiveness of T cells treated with NAC vs cultured without NAC” value (melanoma; preclinical melanoma model) was 33 fold, the distribution ([6]; hyperpolarized 13C-MRI) was “global distribution of NAC, including to the brain” and the “[13C] GSH levels” value [6, 14] was “no detectable levels”. The metabolites formed [6, 14] was “forms a [13C] NAC-GSH dimer as well as other homodimers”.

For `O=C1C(OCCCCCCCCCC[P+](c2ccccc2)(c2ccccc2)c2ccccc2)=C([C@H]2CC[C@H](c3ccc(Cl)cc3)CC2)C(=O)c2ccccc21`, the “immunomodulatory effect in tumor” value (tumor microenvironment; in vivo, listed as Mito10-ATO) is listed as “reverse immunosuppression by regulatory T cells by stimulating the function of effector T cells” and the “potency comparison of the efficacy of PD-1 blockade immunotherapy in combination” value (tumor microenvironment; with PD-1 blockade) is listed as “improved the efficacy of PD-1 blockade immunotherapy”.

In the case of `CSC[C@H](NC(C)=O)C(=O)NCCCCCCCCCC[P+](c1ccccc1)(c1ccccc1)c1ccccc1`, the IC50 [7, 15] is reported as 1.9 µM.

With `CC(=O)N[C@@H](CS)C(=O)NCCCCCCCCCC[P+](c1ccccc1)(c1ccccc1)c1ccccc1` the “fold difference in antiproliferative potency between NAC and Mito10-NAC” value ([7]; MiaPaCa-2, vs NAC) was 1,600 fold, the “stability during the course of the cell proliferation experiment” value ([7]; inferred from bolus vs fresh addition every 48 h) was “relatively stable” and the IC50 [7, 15] was 9.6 µM. The “sensitivity of melanoma cells” value [1] was “more resistant”, the “potency relative to NAC in melanoma cells” value ([1]; vs NAC) was “much more potent than NAC” and the “effect on intracellular ATP” value [8] was “no effect”. For the same compound, the cell toxicity ([2]; at 37 μM) was “negligible cell toxicity”, the cell death ([2]; at concentrations inhibiting proliferation (printed 10-20 M), 24 h and 48 h) was “no effect” and the IC50 ([3]; read-out: concentration inhibiting 50% of basal OCR, 24 h treatment) was 20 µM. For the same compound, the “effect on mitochondrial (complex I-induced) respiration” value (mitochondrial complex I; MiaPaCa-2) was “inhibits mitochondrial complex I-induced respiration”, the IC50 (mitochondrial complex I; read-out: IC50, complex I-induced oxygen consumption, direct injection, permeabilized cells) was 37 µM and the “synergy on proliferation in combination with NAC” value [9] was “not with NAC”.

In the case of `CC(=O)N[C@@H](CS)C(=O)OCCOCCOCCOCC[P+](c1ccccc1)(c1ccccc1)c1ccccc1`, the IC50 [7, 15] is reported as 36.7 µM.

In the case of `Cc1[nH]nc(C(F)(F)F)c1Cc1sc2c(c1C(=O)N1C[C@](C)(O)CO1)c(=O)n(C)c(=O)n2C(C)C`, the “intracellular acidosis and lactate” value (MCT-1 transporter) is listed as “enhance intracellular acidosis through increased intracellular lactate and decreased extracellular lactate”, the “combination effect with an OXPHOS inhibitor” value [10] is listed as “synergistically inhibited the proliferation” and the side effects [11] is listed as “deleterious side effects”.

In the case of `CC(=O)N[C@@H](CS)C(N)=O`, the IC50 ([7]; read-out: IC50, cell proliferation (unit printed M), MiaPaCa-2, at ~90% control confluence) is listed as 4300 µM, the “potency in reversing paracetamol toxicity and oxidative stress-induced diseases vs NAC” value [12] is listed as “more potent than NAC” and the “effect on oncolytic virotherapy” value (glioma) is listed as “enhance the therapeutic effect of neural stem cell-based antiglioma oncolytic virotherapy”. The lipophilicity and permeability [13] was “more lipophilic, membrane-permeable and blood brain barrier permeant”.

Where two headings read alike, the source gives them in different places.
